Target: T1, Serine/threonine-protein kinase Chk1 (Homo sapiens, UniProt O14757)
T1 sequence (O14757 whole entry): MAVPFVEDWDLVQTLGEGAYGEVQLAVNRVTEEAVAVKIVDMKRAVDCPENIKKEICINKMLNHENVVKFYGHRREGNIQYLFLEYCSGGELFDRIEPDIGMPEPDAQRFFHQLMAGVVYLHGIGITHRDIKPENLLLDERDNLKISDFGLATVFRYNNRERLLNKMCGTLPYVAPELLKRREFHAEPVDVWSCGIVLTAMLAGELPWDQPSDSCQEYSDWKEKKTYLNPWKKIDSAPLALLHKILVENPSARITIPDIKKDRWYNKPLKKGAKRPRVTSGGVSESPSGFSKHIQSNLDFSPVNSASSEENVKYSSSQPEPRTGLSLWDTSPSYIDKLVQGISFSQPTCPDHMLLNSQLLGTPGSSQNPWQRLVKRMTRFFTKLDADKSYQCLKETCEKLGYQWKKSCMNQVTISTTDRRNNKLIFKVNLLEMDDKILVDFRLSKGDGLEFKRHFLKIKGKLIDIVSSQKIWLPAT

SMILES	IC50 [µM]
N#Cc1cnc(Nc2cc(N3CCC(N)CC3)ncn2)cn1	1.2
N#Cc1cnc(Nc2cc(NCCN)ncn2)cn1	2.5
N#Cc1cnc(Nc2cc(NCCCO)ncn2)cn1	1.8
N#Cc1cnc(Nc2cc3c(cn2)ncn3CC2CCNCC2)cn1	9

Molecules with a lower IC50, results first:

IC50 [µM]	SMILES
0.4	N#Cc1cnc(Nc2cc(NCCCN)ncn2)cn1
0.007	N#Cc1ncc(Nc2cc3ccccc3cn2)nc1OC1CCCNC1 (stereo unspecified)
